Reference: PubChem BioAssay AID720596 (The Scripps Research Institute Molecular Screening Center, 2013)
This is a selection; strong and weak results do not stand in their true shares. Some results for these compounds are left out of this collection, so the calls shown say nothing about other tests. Activity calls are given as the source filed them. Rule as the data show it: active = inhibition above about 24%; inactive = the rest.

biological target: Major prion protein (Homo sapiens) (UniProt P04156); experiment: reduces human prion protein on the cell surface, primary screen, cell-based, TR-FRET (AID 720596); conditions: cell surface PrPC, TR-FRET read-out; at 13.8 µM; active compounds read high; also: 0% = median of the test wells and 100% = reference compound wells

Compound | inhibition
COc1ccc(Cl)cc1C(=O)NCC1(N(C)C)CCCCC1 | inactive: 2.3%
COc1cccc(C(=O)NCC2(N3CCCCC3)CCCCC2)c1 | inactive: -3.36%
O=C(NCC1(N2CCCCC2)CCCCC1)c1cccc(Cl)c1 | inactive: 2.7%
CN(C)C1(CNC(=O)c2ccc(Br)cc2)CCCCC1 | inactive: -3.59%
COc1cc(C(=O)NCC2(N(C)C)CCCCC2)c([N+](=O)[O-])cc1OC | inactive: -16.6%
C=C(C)C#CC(O)(C(=O)OC1CCN(C)CC1)c1ccccc1 (stereo unspecified) | inactive: -7.66%
COc1ccc(Br)c(C(=O)NCC2(N3CCCCC3)CCCCC2)c1 | inactive: -12.7%
O=C(OCCN1CCCC1)C(O)(c1ccccc1)c1ccccc1 | inactive: 2.29%
CC(C)Oc1ccc(C(=O)NCC2(N(C)C)CCCCC2)cc1 | inactive: -6.05%
CN(C)c1cccc(C(=O)NCC2(N(C)C)CCCCC2)c1 | inactive: -0.3%
O=C(OC1CN2CCC1CC2)C(CO)(c1ccccc1)c1ccccc1 (stereo unspecified) | inactive: 0.59%
COc1cc(SC)ccc1C(=O)NCC1(N(C)C)CCCCC1 | inactive: -4.82%
CCN(CC)CC(C)C(C)OC(=O)C(O)(c1ccccc1)c1ccccc1 (stereo unspecified) | inactive: -9.84%
CC(C)N1C(=O)CC2(CCN(CCOC(=O)C(O)(c3ccccc3)c3ccccc3)CC2)C1=O | inactive: -4.82%
Cc1ccc(C(=O)NCC2(N3CCCCC3)CCCCC2)cc1 | inactive: -2.1%
O=C(NCC1(N2CCCCC2)CCCCC1)c1cc([N+](=O)[O-])ccc1Cl | inactive: -11.5%
CN1[C@@H]2CC[C@H]1CC(OC(=O)C(O)(c1ccccc1)c1ccccc1)C2 (stereo partly specified) | inactive: -7.46%
O=C(NCC1(N2CCCCC2)CCCCC1)c1cc(F)c(F)cc1Cl | inactive: -5.05%
C=CCN1CCN(CCOC(=O)C(O)(c2ccccc2)c2ccccc2)CC1 | inactive: 5.58%
COc1ccc(C(=O)NCC2(N(C)C)CCCCC2)cc1 | inactive: -5.65%
O=C(NCC1(N2CCCCC2)CCCCC1)c1cccc(Br)c1 | inactive: -3.54%
CCN1CCCC(OC(=O)C2(O)c3ccccc3C=Cc3ccccc32)C1 (stereo unspecified) | inactive: -13.9%
Cc1cc(C(=O)NCC2(N3CCCCC3)CCCCC2)ccc1[N+](=O)[O-] | inactive: -8.34%
CN(C)c1ccc(C(=O)NCC2(N(C)C)CCCCC2)cc1 | inactive: 6.48%
CN(C)C1CCCC1OC(=O)C(O)(c1ccccc1)c1ccccc1 (stereo unspecified) | inactive: -7.89%
Cc1ccccc1C(=O)NCC1(N2CCCCC2)CCCCC1 | inactive: 5.88%
